Experimental data taken from patent US9913905B2, “Liquid pharmaceutical formulations for injection comprising thiamine pyrophosphate 1-(3-aminopropyl)-2-methyl-1H-imidazole and uses thereof” (EAGLE BIOLOGICS, INC., priority 2013, dated 2018).

Tested on: TYSABRI®
Experiment: Viscosity of concentrated aqueous solutions of TYSABRI® (mVROC microfluidic viscometer)
Format: physicochemical
Details: TYSABRI® 206 mg/mL; organophosphate 0.25M

- Viscosity: 59.6 ± 1.6 cP
Structure (SMILES): Cc1ncc(C[n+]2csc(CCOP(=O)(O)OP(=O)(O)O)c2C)c(N)n1.[Cl-] [TPP, thiamine pyrophosphate]
